Reference: PubChem BioAssay AID1656 (Sanford-Burnham Center for Chemical Genomics, 2009)
This is a selection; strong and weak results do not stand in their true shares. Activity calls are given as the source filed them.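 The calls were made as follows: active = lipid droplet intensity inhibited by at least 50%, with more than 500 cells counted; inconclusive = wells with under 300 cells, treated as cytotoxic; inactive = the rest.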

Assay: inhibitors of hepatocyte lipid droplet formation, primary screen, imaging, high-throughput imaging, BODIPY stain (AID 1656)
Conditions: AML12 mouse hepatocytes, oleate lipid droplets, at 6.5 µM, hits give high values

Compound | inhibition
O=C(NC(Sc1ccncn1)C(Cl)(Cl)Cl)c1ccccc1 (stereo not given) | inactive: -38.2%
Nc1cc(N)c2nonc2c1[N+](=O)[O-] | inactive: 16%
O=[N+]([O-])c1cc([N+](=O)[O-])c(Nc2ccccn2)c([N+](=O)[O-])c1 | inactive: -25.3%
CP(=O)(Nc1ccccn1)Oc1ccccc1 (stereo not given) | inactive: -40.8%
COc1ccccc1OP(C)(=O)Nc1ccc(Br)cc1 (stereo not given) | inactive: 1.2%
Cc1ccc(N/C(=N/P(=O)(N2CCOCC2)N2CCOCC2)N2CCOCC2)cc1 | inactive: 3.8%
NC(=O)c1cc([N+](=O)[O-])cc([N+](=O)[O-])c1N | inactive: -7.6%
CN1CCCC(OC(=O)C(c2ccccc2)c2ccccc2)C1 (stereo not given) | inactive: -15.3%
Clc1ccc(Cl)c(NC2=NCC(CBr)S2)c1 (stereo not given) | inactive: 7.6%
CN(C)CCOC(=O)C(O)(c1ccccc1)C1CCCC1 (stereo not given) | inactive: -2.1%
COc1ccccc1OP(=O)(Nc1ccc(C)cn1)Oc1ccccc1OC | inactive: -9.9%
COc1ccc(OP(C)(=O)Nc2ccccn2)cc1 (stereo not given) | inactive: -1.5%
Cc1ccc(OP(=O)(Nc2nccs2)Oc2ccc(C)cc2)cc1 | inactive: 2.4%
CCN(/C(=N/P(=O)(N1CCOCC1)N1CCOCC1)N1CCOCC1)c1ccc(OC)cc1 | inactive: -6.1%
COc1ccccc1OP(C)(=O)Nc1ccccc1Br (stereo not given) | inactive: -2.5%
CC(C)(C)c1ccc(OP(C)(=O)O)cc1 | inactive: 5.9%
Nc1ccc([As](=O)(O)c2ccc(N)cc2)cc1 | inactive: 6.9%
C[N+]1=C2C=CC=CC=C2SC12C([N+](=O)[O-])=CC([N+](=O)[O-])=C[C-]2[N+](=O)[O-] (stereo not given) | inactive: 1.9%
CN(C)C(=O)c1c([N+](=O)[O-])cc([N+](=O)[O-])cc1[N+](=O)[O-] | inactive: -3.6%
CC(C)=N/N=C(\N)N[N+](=O)[O-] | inactive: -2.9%
CN(C)C(=O)OCCc1n(C)cc[n+]1C | inactive: 17.4%
COc1ccc(C2=NCC(CBr)S2)cc1 (stereo not given) | inactive: -2.3%

Compound | inhibition
COc1ccc(OP(C)(=O)Nc2ccc(Br)cc2)cc1 (stereo not given) | inactive: 13.9%
Cc1ccc(NP(=O)(Oc2ccccc2)Oc2ccccc2)nc1 | inactive: 6.3%
CCc1ccc(OP(C)(=O)Nc2cccnc2)cc1 (stereo not given) | inactive: -17.4%
O=[N+]([O-])c1cc([N+](=O)[O-])c(CCNc2ccccc2)c([N+](=O)[O-])c1 | inactive: 1.6%
O=[N+]([O-])c1cccc2n[nH]nc12 | inactive: -1.6%
O=C(OCCCN1CCCC1)C(O)(c1ccccc1)C1CCCCC1 (stereo not given) | inactive: 22.1%
O=[N+]([O-])c1ncn(CCn2ncnc2[N+](=O)[O-])n1 | inactive: -2.3%
CC(C)(C)C(=O)NC(Sc1ccncn1)C(Cl)(Cl)Cl (stereo not given) | inactive: 0.8%
O=C(O)CNc1ccc([As](=O)(O)O)cc1 | inactive: 9%
O=[N+]([O-])c1cccc(NC2=NCC(CBr)S2)c1 (stereo not given) | inactive: -10%
CP(=O)(OC12CC3CC(CC(C3)C1)C2)OC12CC3CC(CC(C3)C1)C2 | inactive: -25.6%
CCOC(=O)c1ccc(NP(C)(=O)Oc2ccc(Cl)cc2)cc1 (stereo not given) | inactive: -7.3%
O=C(Nc1cc([As](=O)(O)O)ccc1O)c1ccccc1 | inactive: 22.8%
CP(=S)(Nn1cnnc1)Oc1ccccc1 (stereo not given) | inactive: -0.2%
CCOC(=O)Nc1cccc([As](=O)(O)O)c1 | inactive: -1%
O=P(Nc1ccccn1)(c1cccc2ccccc12)c1cccc2ccccc12 | inactive: -5.8%
Cc1cc(SC(NC=O)C(Cl)(Cl)Cl)ncn1 (stereo not given) | inactive: -0.9%
COc1ccccc1OP(C)(=O)Nc1ccccc1 (stereo not given) | inactive: -0.8%
CP(=O)(Nc1ccccc1Br)Oc1ccccc1 (stereo not given) | inactive: 27.2%
O=[N+]([O-])c1ccc(Nc2ccc(Oc3ccc([N+](=O)[O-])cc3[N+](=O)[O-])cc2)c([N+](=O)[O-])c1 | inactive: 30.6%
CCOC(=O)Nc1ccc([As](=O)(O)O)c(O)c1 | inactive: -6.4%
CCCCOc1ccc(C(=O)NCC2(N3CCCCC3)CCCCC2)cc1OC | inactive: 0.2%

Compound | inhibition
Cc1cc(SC(NC(=O)c2ccccc2)C(Cl)(Cl)Cl)nc(C(C)C)n1 (stereo not given) | inactive: -21.2%
O=C(OC1CN2CCC1CC2)c1cccc([N+](=O)[O-])c1 (stereo not given) | inactive: 5.8%
CCOC(=O)c1ccc(NC(=O)C(C)(CCl)SC)cc1 (stereo not given) | inactive: 19.1%
CCOC(=O)c1ccc(NP(C)(=O)Oc2ccc(OC)cc2)cc1 (stereo not given) | inactive: -50.4%
CCC(C)N(CC(C)C)C(=S)SC(NC(C)=O)C(Cl)(Cl)Cl (stereo not given) | inactive: -0.5%
CP(=O)(Nc1ccccn1)Oc1ccc(Cl)cc1 (stereo not given) | inactive: 5.1%
COP1(=S)c2c(C)nn(CCC#N)c2N=C(c2ccc(F)cc2)N1C (stereo not given) | inactive: -0.2%
Cc1cccc(C)c1OP(C)(=O)Nc1ccc(SC(F)(F)F)cc1 (stereo not given) | inactive: -0.3%
CP(=O)(Oc1ccccc1)OC(c1ccccc1)C(F)(F)F (stereo not given) | inactive: -25.4%
O=C(COc1ccccc1)OC1CN2CCC1CC2 (stereo not given) | inactive: 0.1%
CCc1ccc(OP(C)(=O)N2CCN(c3ccc([N+](=O)[O-])cc3)CC2)cc1 (stereo not given) | inactive: 10.6%
Cc1cc(C)cc(OP(C)(=O)Nc2ccc(SC(F)(F)F)cc2)c1 (stereo not given) | inactive: -0.7%
O=C(Nc1ccncc1[N+](=O)[O-])c1ccc([N+](=O)[O-])cc1[N+](=O)[O-] | inactive: 5.6%
COc1ccc(N/C(=N/P(=O)(N2CCOCC2)N2CCOCC2)N2CCOCC2)cc1 | inactive: -13.2%
Cc1c2c(nc3ccccc13)SC(C(Cl)Cl)C2 (stereo not given) | inactive: -1.9%
Cc1cc(=O)[nH]c(N[N+](=O)[O-])n1 | inactive: -0.5%
CCN(CC)CCCOC(=O)C(O)(c1ccccc1)c1ccccc1 | inactive: 3.8%
COc1ccc2nc(NP(=O)(c3ccccc3)c3ccccc3)sc2c1 | inactive: 2.5%
COc1cc(I)ccc1[As](=O)(O)O | inactive: -6%
CCOC(=O)c1ccc(NP(C)(=O)Oc2ccccc2)cc1 (stereo not given) | inactive: -9.9%
ClCCSc1nnc(-c2cccnc2)o1 | inactive: -0.7%
